Test results as given in PMC12102759 (Protein Science : A Publication of the Protein Society, 2025).

Tested on: AP2M1 MU
Type: binding, human

Substance | PSSM value of the substitution (DMS by phage display) | PSSM value of the substitution, averaged over the two overlapping peptides
VSDIDYVPLKSATAIT T13Q (VSDIDYVPLKSAQAIT) | 0.5233 | –
QVVSDIDYVPLKSATA V9N (QVVSDIDYNPLKSATA) | 0 | –
QVVSDIDYVPLKSATA L11R (QVVSDIDYVPRKSATA) | 0 | –
QVVSDIDYVPLKSATA V9M (QVVSDIDYMPLKSATA) | 0 | –
VSDIDYVPLKSATA(averaged) D3I (VSIIDYVPLKSATA) | – | 0
VSDIDYVPLKSATAIT D3N (VSNIDYVPLKSATAIT) | 0.1331 | –
VSDIDYVPLKSATA(averaged) S2N (VNDIDYVPLKSATA) | – | 0.0353
VSDIDYVPLKSATAIT I15N (VSDIDYVPLKSATANT) | 0.006464 | –
VSDIDYVPLKSATA(averaged) P8E (VSDIDYVELKSATA) | – | 0.4861
QVVSDIDYVPLKSATA V2D (QDVSDIDYVPLKSATA) | 0 | –
VSDIDYVPLKSATAIT A12G (VSDIDYVPLKSGTAIT) | 0 | –
QVVSDIDYVPLKSATA Y8F (QVVSDIDFVPLKSATA) | 0 | –
QVVSDIDYVPLKSATA A16W (QVVSDIDYVPLKSATW) | 0 | –
QVVSDIDYVPLKSATA A16F (QVVSDIDYVPLKSATF) | 0.02903 | –
QVVSDIDYVPLKSATA Y8S (QVVSDIDSVPLKSATA) | 0 | –
VSDIDYVPLKSATA(averaged) D3Q (VSQIDYVPLKSATA) | – | 0.001253
VSDIDYVPLKSATA(averaged) A14M (VSDIDYVPLKSATM) | – | 0
VSDIDYVPLKSATA(averaged) L9Y (VSDIDYVPYKSATA) | – | 0
VSDIDYVPLKSATA(averaged) A12Y (VSDIDYVPLKSYTA) | – | 0
VSDIDYVPLKSATA(averaged) I4Q (VSDQDYVPLKSATA) | – | 0
VSDIDYVPLKSATA(averaged) Y6T (VSDIDTVPLKSATA) | – | 0
VSDIDYVPLKSATA(averaged) S2V (VVDIDYVPLKSATA) | – | 0
VSDIDYVPLKSATA(averaged) S11F (VSDIDYVPLKFATA) | – | 0.007837

Substance | PSSM value of the substitution (DMS by phage display) | PSSM value of the substitution, averaged over the two overlapping peptides
QVVSDIDYVPLKSATA I6P (QVVSDPDYVPLKSATA) | 4.874e-5 | –
QVVSDIDYVPLKSATA V3E (QVESDIDYVPLKSATA) | 0.02236 | –
VSDIDYVPLKSATA(averaged) L9W (VSDIDYVPWKSATA) | – | 0.172
VSDIDYVPLKSATAIT D3L (VSLIDYVPLKSATAIT) | 0.142 | –
VSDIDYVPLKSATA(averaged) S2K (VKDIDYVPLKSATA) | – | 0.002995
VSDIDYVPLKSATA(averaged) V1V | – | 0.006376
QVVSDIDYVPLKSATA P10P | 0.5237 | –
QVVSDIDYVPLKSATA D7R (QVVSDIRYVPLKSATA) | 0.000174 | –
VSDIDYVPLKSATAIT P8W (VSDIDYVWLKSATAIT) | 0 | –
VSDIDYVPLKSATA(averaged) Y6K (VSDIDKVPLKSATA) | – | 0
VSDIDYVPLKSATAIT A12H (VSDIDYVPLKSHTAIT) | 0.003172 | –
QVVSDIDYVPLKSATA Y8R (QVVSDIDRVPLKSATA) | 0 | –
VSDIDYVPLKSATA(averaged) V7K (VSDIDYKPLKSATA) | – | 0.01977
QVVSDIDYVPLKSATA Y8L (QVVSDIDLVPLKSATA) | 0 | –
QVVSDIDYVPLKSATA D7F (QVVSDIFYVPLKSATA) | 0 | –
QVVSDIDYVPLKSATA V9L (QVVSDIDYLPLKSATA) | 0 | –
VSDIDYVPLKSATAIT P8R (VSDIDYVRLKSATAIT) | 0 | –
QVVSDIDYVPLKSATA P10D (QVVSDIDYVDLKSATA) | 0 | –
VSDIDYVPLKSATA(averaged) S2Y (VYDIDYVPLKSATA) | – | 0.2627
VSDIDYVPLKSATAIT S11R (VSDIDYVPLKRATAIT) | 0 | –
QVVSDIDYVPLKSATA V3T (QVTSDIDYVPLKSATA) | 0.002843 | –
VSDIDYVPLKSATA(averaged) S11G (VSDIDYVPLKGATA) | – | 0.0001367
VSDIDYVPLKSATAIT A12W (VSDIDYVPLKSWTAIT) | 0.08398 | –

Substance | PSSM value of the substitution (DMS by phage display) | PSSM value of the substitution, averaged over the two overlapping peptides
VSDIDYVPLKSATA(averaged) S2A (VADIDYVPLKSATA) | – | 0.001505
VSDIDYVPLKSATAIT S2I (VIDIDYVPLKSATAIT) | 0.001097 | –
VSDIDYVPLKSATAIT L9S (VSDIDYVPSKSATAIT) | 0 | –
VSDIDYVPLKSATAIT L9M (VSDIDYVPMKSATAIT) | 0 | –
QVVSDIDYVPLKSATA V3V | 0.01264 | –
VSDIDYVPLKSATAIT A14N (VSDIDYVPLKSATNIT) | 0.002047 | –
QVVSDIDYVPLKSATA A14W (QVVSDIDYVPLKSWTA) | 0.03489 | –
VSDIDYVPLKSATA(averaged) T13G (VSDIDYVPLKSAGA) | – | 0.0009749
QVVSDIDYVPLKSATA I6K (QVVSDKDYVPLKSATA) | 0 | –
VSDIDYVPLKSATAIT Y6M (VSDIDMVPLKSATAIT) | 0 | –
VSDIDYVPLKSATAIT S2F (VFDIDYVPLKSATAIT) | 0.06382 | –
VSDIDYVPLKSATAIT D5H (VSDIHYVPLKSATAIT) | 0 | –
VSDIDYVPLKSATAIT T13V (VSDIDYVPLKSAVAIT) | 0.03153 | –
VSDIDYVPLKSATAIT I4M (VSDMDYVPLKSATAIT) | 0.0009955 | –
VSDIDYVPLKSATAIT A14P (VSDIDYVPLKSATPIT) | 0.003463 | –
QVVSDIDYVPLKSATA S13P (QVVSDIDYVPLKPATA) | 0 | –
VSDIDYVPLKSATA(averaged) D5G (VSDIGYVPLKSATA) | – | 0.000447
QVVSDIDYVPLKSATA D7K (QVVSDIKYVPLKSATA) | 6.7986e-5 | –
VSDIDYVPLKSATA(averaged) I4W (VSDWDYVPLKSATA) | – | 0.000276
QVVSDIDYVPLKSATA S13A (QVVSDIDYVPLKAATA) | 6.609e-5 | –
VSDIDYVPLKSATA(averaged) K10I (VSDIDYVPLISATA) | – | 0.000105
VSDIDYVPLKSATA(averaged) V1E (ESDIDYVPLKSATA) | – | 0.01737
VSDIDYVPLKSATAIT I15I | 0.01278 | –

Substance | PSSM value of the substitution (DMS by phage display) | PSSM value of the substitution, averaged over the two overlapping peptides
VSDIDYVPLKSATAIT P8E (VSDIDYVELKSATAIT) | 0.9723 | –
VSDIDYVPLKSATAIT I4T (VSDTDYVPLKSATAIT) | 0 | –
VSDIDYVPLKSATAIT A12D (VSDIDYVPLKSDTAIT) | 0.004033 | –
VSDIDYVPLKSATA(averaged) I4A (VSDADYVPLKSATA) | – | 2.437e-5
VSDIDYVPLKSATA(averaged) V7P (VSDIDYPPLKSATA) | – | 0
VSDIDYVPLKSATA(averaged) P8P | – | 0.2644
VSDIDYVPLKSATAIT I15S (VSDIDYVPLKSATAST) | 0 | –
VSDIDYVPLKSATA(averaged) K10N (VSDIDYVPLNSATA) | – | 0.1335
VSDIDYVPLKSATA(averaged) V1K (KSDIDYVPLKSATA) | – | 0.0001655
VSDIDYVPLKSATA(averaged) A12H (VSDIDYVPLKSHTA) | – | 0.001905
QVVSDIDYVPLKSATA T15G (QVVSDIDYVPLKSAGA) | 0.0008526 | –
VSDIDYVPLKSATA(averaged) Y6Y | – | 1
QVVSDIDYVPLKSATA D7E (QVVSDIEYVPLKSATA) | 0.8144 | –
VSDIDYVPLKSATAIT I4I | 0.0002831 | –
VSDIDYVPLKSATAIT S11I (VSDIDYVPLKIATAIT) | 0 | –
VSDIDYVPLKSATAIT A12A | 0.005544 | –
VSDIDYVPLKSATA(averaged) D3Y (VSYIDYVPLKSATA) | – | 0.004856
QVVSDIDYVPLKSATA A16Y (QVVSDIDYVPLKSATY) | 0.0001031 | –
QVVSDIDYVPLKSATA S4L (QVVLDIDYVPLKSATA) | 0 | –
QVVSDIDYVPLKSATA A14K (QVVSDIDYVPLKSKTA) | 0 | –
VSDIDYVPLKSATAIT P8D (VSDIDYVDLKSATAIT) | 0.001823 | –
QVVSDIDYVPLKSATA V9D (QVVSDIDYDPLKSATA) | 0 | –
VSDIDYVPLKSATA(averaged) S11P (VSDIDYVPLKPATA) | – | 0.007236
